Test results reported in patent publication US9493486B2, “Diazaspirocycloalkane and azaspirocycloalkane” (Hoffmann-La Roche Inc., priority 2012, dated 2016).

Target: ATX (human His-tagged) (Homo sapiens (Human), UniProt Q13822)
Experiment: Human ATX enzyme inhibition assay (fluorescence quenching, MR121 substrate)
Format: biochemical
Settings: 30 nM ATX, 1 μM MR121 substrate, 30° C.
Source text: Human ATX Enzyme Inhibition Assay
Assay working solutions were made as follows:

Row | IC50 [nM] | Compound
1 | 16 | O=C(OCc1ccc(OC(F)(F)F)cc1F)N1CCC2(CC1)CN(C(=O)[C@H]1CCc3[nH]nnc3C1)C2 (single isomer, unassigned) [Example 15A, (−)-2-Fluoro-4-(trifluoromethoxy)benzyl 2-(4,5,6,7-tetrahydro-1H-benzo[d][1,2,3]triazole-5-carbonyl)-2,7-diazaspiro[3.5]nonane-7-carboxylate]
2 | 3520 | O=C(OCc1ccsc1)N1CCC2(CC1)CN(C(=O)c1ccc3[nH]nnc3c1)C2 [Example 12.13, thiophen-3-ylmethyl 2-(1H-benzo[d][1,2,3]triazole-5-carbonyl)-2,7-diazaspiro[3.5]nonane-7-carboxylate]
3 | 20.3 | O=C(OCc1c(Cl)cc(Cl)cc1Cl)N1CCC2(CC1)CN(C(=O)c1ccc3[nH]nnc3c1)C2 [Example 12.17, 2,4,6-trichlorobenzyl 2-(1H-benzo[d][1,2,3]triazole-5-carbonyl)-2,7-diazaspiro[3.5]nonane-7-carboxylate]
